Experimental data from patent publication US5654422A, “Acylated γ-cyclodextrins” (priority 1994, dated 1997).

Assays:
[1] = 1440 min

Solubilization of Hydrocortisone [1]	Water Solubility	Substance
52.5 mg/mL	> 70%	Acetyl-γ-CD (DS,0.95) [Ex. 3 Ac-gamma-CD(0.95)]
46.6 mg/mL	50.00%	Acetyl-γ-CD (DS, 0.83) [Ex. 2 Ac-gamma-CD(0.83)]
53.4 mg/mL	> 70%	Acetyl-γ-CD (DS, 0.95) [Ex. 5 Ac-gamma-CD(0.95)]
49.5 mg/mL	> 70%	Acetyl-γCD (DS, 1.17) [Ex. 1 Ac-gamma-CD(1.17)]
39.6 mg/mL		Methyl-γ-cyclodextrin (DS,1.8) [Me-gamma-CD(1.8)]
41 mg/mL		hydroxypropyl-γ-cyclodextrin [Hp-gamma-CD(0.6)]
28 mg/mL		hydroxypropyl-γ-cyclodextrin [Hp-gamma-CD(0.9)]
